Biological target: T1, Collagenase ColG (Hathewaya histolytica, UniProt Q9X721)
T1 sequence (Q9X721 whole entry): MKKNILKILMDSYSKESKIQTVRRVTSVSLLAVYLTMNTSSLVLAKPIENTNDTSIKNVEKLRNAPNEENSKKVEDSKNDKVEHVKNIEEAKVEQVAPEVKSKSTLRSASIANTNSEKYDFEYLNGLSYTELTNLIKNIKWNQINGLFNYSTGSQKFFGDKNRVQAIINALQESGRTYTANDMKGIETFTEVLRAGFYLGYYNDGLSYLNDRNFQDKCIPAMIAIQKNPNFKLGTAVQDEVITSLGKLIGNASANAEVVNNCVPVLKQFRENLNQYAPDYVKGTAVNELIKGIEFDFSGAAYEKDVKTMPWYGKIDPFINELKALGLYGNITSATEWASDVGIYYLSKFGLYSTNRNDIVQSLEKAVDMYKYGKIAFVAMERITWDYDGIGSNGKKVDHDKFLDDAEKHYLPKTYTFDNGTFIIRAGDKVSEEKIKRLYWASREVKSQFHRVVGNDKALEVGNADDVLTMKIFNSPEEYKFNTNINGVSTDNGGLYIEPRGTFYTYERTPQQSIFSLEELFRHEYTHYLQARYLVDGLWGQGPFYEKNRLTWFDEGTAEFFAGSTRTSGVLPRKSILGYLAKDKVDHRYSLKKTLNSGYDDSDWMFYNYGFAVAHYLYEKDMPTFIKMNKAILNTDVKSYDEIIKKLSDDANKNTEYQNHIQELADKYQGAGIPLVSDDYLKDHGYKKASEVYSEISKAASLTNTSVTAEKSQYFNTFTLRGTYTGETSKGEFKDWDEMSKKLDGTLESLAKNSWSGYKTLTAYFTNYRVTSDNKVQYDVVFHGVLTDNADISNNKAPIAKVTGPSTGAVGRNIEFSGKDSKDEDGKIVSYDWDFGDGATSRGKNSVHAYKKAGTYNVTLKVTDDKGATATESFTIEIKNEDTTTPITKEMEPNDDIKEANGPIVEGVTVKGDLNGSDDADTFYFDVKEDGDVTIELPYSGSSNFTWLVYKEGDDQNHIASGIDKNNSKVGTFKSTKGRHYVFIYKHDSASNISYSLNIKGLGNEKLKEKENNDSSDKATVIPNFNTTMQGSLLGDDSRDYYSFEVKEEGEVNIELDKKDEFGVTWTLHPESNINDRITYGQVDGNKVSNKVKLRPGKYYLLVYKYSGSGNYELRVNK
Assay: ChC Enzyme Inhibition Assay
Experimental: The rate of hydrolysis was determined from the change in absorbance at 324 nm using an extinction coefficient, 24700 M-1 cm-1 for FALGPA. Initial velocities were thus estimated using the direct linear plot-based procedure. The inhibition constant Ki was then determined by using Easson-Stedman plots and a linear regression program.

SMILES | Ki [nM] | Ki (pH 7.5, 25 °C) [nM]
CC(C(=O)NO)N(Cc1ccccc1Cl)C(=O)Nc1cccc2ccccc12 (centres undefined) [2-{[(2-chlorophenyl)methyl](naphthalen-1-ylcarbamoyl)amino}-N-hydroxypropanamide] | 11 | –
CC(C(=O)O)N(Cc1ccccc1Cl)C(=O)Nc1cccc2ccccc12 (centres undefined) [2-{[(2-chlorophenyl)methyl](naphthalen-1-ylcarbamoyl)amino}propanoic acid] | 5000 | –
CC(C(=O)NO)N(Cc1ccccc1Cl)S(=O)(=O)c1cccc2ccccc12 (centres undefined) [2-{[(2-chlorophenyl)methyl](naphthalene-1-)sulfonamido}-N-hydroxypropanamide] | 8 | –
CC(C(=O)O)N(Cc1ccccc1Cl)S(=O)(=O)c1cccc2ccccc12 (centres undefined) [2-{[(2-chlorophenyl)methyl](naphthalene-1-)sulfonamido}propanoic acid] | 1600 | –
CC(C(=O)NO)N(Cc1ccccc1Cl)S(=O)(=O)c1ccc2ccccc2c1 (centres undefined) [2-{[(2-chlorophenyl)methyl](naphthalene-2-)sulfonamido}-N-hydroxypropanamide] | 9 | –
CC(C(=O)O)N(Cc1ccccc1Cl)S(=O)(=O)Cc1ccccc1 (centres undefined) [2-{[(2-chlorophenyl)methyl](phenylmethane)sulfonamido}propanoic acid] | – | 16000
CC(C(=O)O)N(Cc1ccccc1Cl)S(=O)(=O)c1cccc2cccnc12 (centres undefined) [2-{[(2-chlorophenyl)methyl](quinoline-8-)sulfonamido}propanoic acid] | 2000 | –
CC(C(=O)NO)N(Cc1ccccc1Cl)S(=O)(=O)c1cccs1 (centres undefined) [2-{[(2-chlorophenyl)methyl](thiophene-2-)sulfonamido}-N-hydroxypropanamide] | 11 | –
CC(C(=O)O)N(Cc1ccccc1Cl)S(=O)(=O)c1cccs1 (centres undefined) [2-{[(2-chlorophenyl)methyl](thiophene-2-)sulfonamido}propanoic acid] | 2400 | –
CC(C(=O)NO)N(Cc1ccccc1Cl)S(=O)(=O)C(Cl)(Cl)Cl (centres undefined) [2-{[(2-chlorophenyl)methyl](trichloromethane)sulfonamido}-N-hydroxypropanamide] | 71 | –
CC(C(=O)O)N(Cc1ccccc1Cl)S(=O)(=O)C(Cl)(Cl)Cl (centres undefined) [2-{[(2-chlorophenyl)methyl](trichloromethane)sulfonamido}propanoic acid] | – | 5200
CC(C(=O)NO)N(Cc1ccccc1Cl)S(=O)(=O)C(F)(F)F (centres undefined) [2-{[(2-chlorophenyl)methyl](trifluoromethane)sulfonamido}-N-hydroxypropanamide] | 76 | –
CC(C(=O)O)N(Cc1ccccc1Cl)S(=O)(=O)C(F)(F)F (centres undefined) [2-{[(2-chlorophenyl)methyl](trifluoromethane)sulfonamido}propanoic acid] | – | 3300
Cc1ccccc1S(=O)(=O)NC(=O)N(Cc1ccccc1Cl)C(C)C(=O)NO (centres undefined) [2-{[(2-chlorophenyl)methyl]({[(2-methylbenzene)sulfonyl]carbamoyl})amino}-N-hydroxypropanamide] | 10 | –
Cc1ccccc1S(=O)(=O)NC(=O)N(Cc1ccccc1Cl)C(C)C(=O)O (centres undefined) [2-{[(2-chlorophenyl)methyl]({[(2-methylbenzene)sulfonyl]carbamoyl})amino}propanoic acid] | 4000 | –
CC(C(=O)NO)N(Cc1ccccc1Cl)C(=O)NS(=O)(=O)c1ccc(F)cc1 (centres undefined) [2-{[(2-chlorophenyl)methyl]({[(4-fluorobenzene)sulfonyl]carbamoyl})amino}-N-hydroxypropanamide] | 9 | –
CC(C(=O)O)N(Cc1ccccc1Cl)C(=O)NS(=O)(=O)c1ccc(F)cc1 (centres undefined) [2-{[(2-chlorophenyl)methyl]({[(4-fluorobenzene)sulfonyl]carbamoyl})amino}propanoic acid] | 3600 | –

SMILES | Ki [nM] | Ki (pH 7.5, 25 °C) [nM]
Cc1ccc(S(=O)(=O)NC(=O)N(Cc2ccccc2Cl)C(C)C(=O)O)cc1 (centres undefined) [2-{[(2-chlorophenyl)methyl]({[(4-methylbenzene)sulfonyl]carbamoyl})amino}propanoic acid] | 4100 | –
CC(C(=O)NO)N(Cc1ccccc1Cl)S(=O)(=O)c1cccc(C(F)(F)F)c1 (centres undefined) [2-{[(2-chlorophenyl)methyl][3-(trifluoromethyl)benzene]sulfonamido}-N-hydroxypropanamide] | 6 | –
CC(C(=O)NO)N(Cc1ccccc1Cl)S(=O)(=O)c1cccc2c(N(C)C)cccc12 (centres undefined) [2-{[(2-chlorophenyl)methyl][5-(dimethylamino)naphthalene-1-]sulfonamido}-N-hydroxypropanamide] | 10 | –
CC(C(=O)NO)N(Cc1ccccc1Cl)C(=O)Nc1ccc(F)cc1F (centres undefined) [2-{[(2-chlorophenyl)methyl][(2,4-difluorophenyl)carbamoyl]amino}-N-hydroxypropanamide] | 14 | –
CC(C(=O)O)N(Cc1ccccc1Cl)C(=O)Nc1ccc(F)cc1F (centres undefined) [2-{[(2-chlorophenyl)methyl][(2,4-difluorophenyl)carbamoyl]amino}propanoic acid] | 5500 | –
CC(C(=O)NO)N(Cc1ccccc1Cl)Sc1ccc([N+](=O)[O-])cc1[N+](=O)[O-] (centres undefined) [2-{[(2-chlorophenyl)methyl][(2,4-dinitrophenyl)sulfanyl]amino}-N-hydroxypropanamide] | 11 | –
CC(C(=O)O)N(Cc1ccccc1Cl)Sc1ccc([N+](=O)[O-])cc1[N+](=O)[O-] (centres undefined) [2-{[(2-chlorophenyl)methyl][(2,4-dinitrophenyl)sulfanyl]amino}propanoic acid] | 6100 | –
CC(C(=O)NO)N(Cc1ccccc1Cl)Sc1ccccc1[N+](=O)[O-] (centres undefined) [2-{[(2-chlorophenyl)methyl][(2-nitrophenyl)sulfanyl]amino}-N-hydroxypropanamide] | 12 | –
CC(C(=O)NO)N(Cc1ccccc1Cl)C(=O)Nc1ccc(Cl)c(Cl)c1 (centres undefined) [2-{[(2-chlorophenyl)methyl][(3,4-dichlorophenyl)carbamoyl]amino}-N-hydroxypropanamide] | 15 | –
CC(C(=O)O)N(Cc1ccccc1Cl)C(=O)Nc1ccc(Cl)c(Cl)c1 (centres undefined) [2-{[(2-chlorophenyl)methyl][(3,4-dichlorophenyl)carbamoyl]amino}propanoic acid] | 5800 | –
CC(C(=O)O)N(Cc1ccccc1Cl)C(=O)Nc1ccc(F)cc1 (centres undefined) [2-{[(2-chlorophenyl)methyl][(4-fluorophenyl)carbamoyl]amino}propanoic acid] | 7400 | –
CC(C(=O)NO)N(Cc1ccccc1Cl)C(=S)NC(=O)c1ccccc1 (centres undefined) [2-{[(2-chlorophenyl)methyl][(phenylformamido)methanethioyl]amino}-N-hydroxypropanamide] | 6 | –
CC(C(=O)O)N(Cc1ccccc1Cl)C(=S)NC(=O)c1ccccc1 (centres undefined) [2-{[(2-chlorophenyl)methyl][(phenylformamido)methanethioyl]amino}propanoic acid] | 900 | –
CC(C(=O)NO)N(Cc1ccccc1Cl)C(=O)Nc1cccc(Cl)c1 (centres undefined) [2-{[(3-chlorophenyl)carbamoyl][(2-chlorophenyl)methyl]amino}-N-hydroxypropanamide] | 17 | –
CC(C(=O)O)N(Cc1ccccc1Cl)C(=O)Nc1cccc(Cl)c1 (centres undefined) [2-{[(3-chlorophenyl)carbamoyl][(2-chlorophenyl)methyl]amino}propanoic acid] | 7600 | –
CC(C(=O)O)N(Cc1ccccc1Cl)C(=O)Nc1ccc(Cl)cc1 (centres undefined) [2-{[(4-chlorophenyl)carbamoyl][(2-chlorophenyl)methyl]amino}propanoic acid] | 6800 | –
CC(C(=O)NO)N(Cc1ccccc1Cl)S(=O)(=O)c1ccccc1 (centres undefined) [2-{benzene[(2-chlorophenyl)methyl]sulfonamido}-N-hydroxypropanamide] | 58 | –
